Target: Prothrombin (Homo sapiens, UniProt P00734)
Assay: Inhibitory concentration against thrombin.

Work on `N=C(N)NCCC[C@H](NC(=O)[C@@H]1CCN2CC[C@@](N)(Cc3ccccc3)CN12)C(=O)C(=O)NCc1ccccc1` yielded a Ki of 0.073 nM.
